Test results: PubChem BioAssay (NCI)
Some tests of the compounds listed are not included; inactive here does not mean inactive elsewhere.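 Compound exposure: 48 hours, 5 concentrations, 96-well plates. At the GI50, growth is halved.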

Tests used:
Assay in all cases: NCI tumour cell line growth inhibition, 48 h; in the data active = GI50 below about 0.43 µM; inactive = the rest
K-562 leukemia = test system: K-562 leukemia
HL-60(TB) leukemia = test system: HL-60(TB) leukemia
CAKI-1 renal = test system: CAKI-1 renal
MOLT-4 leukemia = test system: MOLT-4 leukemia
PC-3 prostate = test system: PC-3 prostate
SNB-19 CNS = test system: SNB-19 CNS
786-0 renal = test system: 786-0 renal
NCI/ADR-RES ovarian = test system: NCI/ADR-RES ovarian
MDA-MB-231 breast = test system: MDA-MB-231 breast
T-47D breast = test system: T-47D breast
TK-10 renal = test system: TK-10 renal
A549 NSCLC = test system: A549 NSCLC
MCF7 breast = test system: MCF7 breast
OVCAR-3 ovarian = test system: OVCAR-3 ovarian
NCI-H460 lung = test system: NCI-H460 lung
UO-31 renal = test system: UO-31 renal
SN12C renal = test system: SN12C renal
SK-OV-3 ovarian = test system: SK-OV-3 ovarian
HCC-2998 colon = test system: HCC-2998 colon
RPMI-8226 leukemia = test system: RPMI-8226 leukemia
HCT-15 colon = test system: HCT-15 colon
SF-539 CNS = test system: SF-539 CNS
MDA-N = test system: MDA-N
UACC-257 melanoma = test system: UACC-257 melanoma
SF-295 CNS = test system: SF-295 CNS
SNB-75 CNS = test system: SNB-75 CNS
CCRF-CEM leukemia = test system: CCRF-CEM leukemia
M14 melanoma = test system: M14 melanoma
IGROV1 ovarian = test system: IGROV1 ovarian
HT29 colon = test system: HT29 colon
MALME-3M melanoma = test system: MALME-3M melanoma
SK-MEL-28 melanoma = test system: SK-MEL-28 melanoma
HOP-62 NSCLC = test system: HOP-62 NSCLC
SW-620 colon = test system: SW-620 colon
NCI-H522 lung = test system: NCI-H522 lung
EKVX NSCLC = test system: EKVX NSCLC
NCI-H322M lung = test system: NCI-H322M lung
SF-268 CNS = test system: SF-268 CNS
DU-145 prostate = test system: DU-145 prostate
RXF 393 renal = test system: RXF 393 renal
KM12 colon = test system: KM12 colon
NCI-H23 lung = test system: NCI-H23 lung
MDA-MB-435 = test system: MDA-MB-435
ACHN renal = test system: ACHN renal
OVCAR-5 ovarian = test system: OVCAR-5 ovarian
COLO 205 colon = test system: COLO 205 colon
HCT-116 colon = test system: HCT-116 colon
SK-MEL-2 melanoma = test system: SK-MEL-2 melanoma
OVCAR-4 ovarian = test system: OVCAR-4 ovarian
SR leukemia = test system: SR leukemia
SK-MEL-5 melanoma = test system: SK-MEL-5 melanoma
NCI-H226 lung = test system: NCI-H226 lung
U251 CNS = test system: U251 CNS
A498 renal = test system: A498 renal
OVCAR-8 ovarian = test system: OVCAR-8 ovarian
LOX IMVI melanoma = test system: LOX IMVI melanoma
UACC-62 melanoma = test system: UACC-62 melanoma

Measured: GI50

O=C(CCCN1CCC(OC(=O)C(O)(c2ccccc2)C2CCCC2)CC1)c1ccccc1 (configuration not stated)
inactive: K-562 leukemia 15.9 µM | HL-60(TB) leukemia 18 µM | CAKI-1 renal 22 µM | MOLT-4 leukemia 22.2 µM | PC-3 prostate 14.6 µM | SNB-19 CNS 17.8 µM | 786-0 renal 17.1 µM | NCI/ADR-RES ovarian 15.4 µM | MDA-MB-231 breast 16.3 µM | T-47D breast 20.2 µM | TK-10 renal 16 µM | A549 NSCLC 18.6 µM | MCF7 breast 19.6 µM | OVCAR-3 ovarian 14 µM | NCI-H460 lung 20.2 µM | UO-31 renal 9.51 µM | SN12C renal 16.5 µM | SK-OV-3 ovarian 22.9 µM | HCC-2998 colon 16.5 µM | RPMI-8226 leukemia 21.9 µM | HCT-15 colon 15.9 µM | SF-539 CNS 17.7 µM | MDA-N 20.7 µM | UACC-257 melanoma 16.7 µM | SF-295 CNS 17.8 µM | SNB-75 CNS 15.9 µM | CCRF-CEM leukemia 18.9 µM | M14 melanoma 13.9 µM | IGROV1 ovarian 18.2 µM | HT29 colon 3.44 µM | MALME-3M melanoma 14.1 µM | SK-MEL-28 melanoma 19.8 µM | HOP-62 NSCLC 18.5 µM | SW-620 colon 19 µM | NCI-H522 lung 23.5 µM | EKVX NSCLC 18.2 µM | NCI-H322M lung 16.5 µM | SF-268 CNS 18.6 µM | DU-145 prostate 17.4 µM | RXF 393 renal 14 µM | KM12 colon 15.6 µM | NCI-H23 lung 17.1 µM | MDA-MB-435 = 18 µM | ACHN renal 15.8 µM | OVCAR-5 ovarian 15 µM | COLO 205 colon 12.6 µM | HCT-116 colon 14.7 µM | SK-MEL-2 melanoma 17 µM | OVCAR-4 ovarian 14.8 µM | SR leukemia 17.4 µM | SK-MEL-5 melanoma 16.2 µM | NCI-H226 lung 16.7 µM | U251 CNS 18.8 µM | A498 renal 18.8 µM | OVCAR-8 ovarian 17 µM | LOX IMVI melanoma 14.2 µM | UACC-62 melanoma 18.3 µM
